{"source": "paper PMC2982901", "about": "(Cancer chemotherapy and pharmacology, 2010)", "key": {"Panc-1 xenografts": {"test_system": "Panc-1 xenografts", "settings": "Panc-1 xenograft, 5/2/5 schedule"}, "[1]": {"settings": "5/2/5 schedule"}}, "note": "Read-outs that look alike come from different tables or passages of the source."}
{"substance": "7-butyl-10-amino-camptothecin-(20S) β-alanine-lysine [BACPTDP]", "values": [{"measurement": "Maximum body weight loss (%)", "setting": "Panc-1 xenografts; 4.5 mg/kg i.p.", "result": 6, "unit": "%"}, {"measurement": "Maximum body weight loss (%)", "setting": "Panc-1 xenografts; 6.7 mg/kg i.p.", "result": 11, "unit": "%"}, {"measurement": "Maximum body weight loss (%)", "setting": "Panc-1 xenografts; 8.0 mg/kg i.p.", "result": 21, "unit": "%"}, {"measurement": "22 Day survival", "setting": "[1]; 2.5 mg/kg i.p.", "result": "3/3"}, {"measurement": "Maximum body weight loss (%)", "setting": "[1]; 2.5 mg/kg i.p.", "result": 0, "unit": "%"}, {"measurement": "22 Day survival", "setting": "[1]; 5 mg/kg i.p.", "result": "3/3"}, {"measurement": "Maximum body weight loss (%)", "setting": "[1]; 5 mg/kg i.p.", "result": 2, "unit": "%"}, {"measurement": "22 Day survival", "setting": "[1]; 10 mg/kg i.p.", "result": "2/3"}, {"measurement": "Maximum body weight loss (%)", "setting": "[1]; 10 mg/kg i.p.", "result": 24, "unit": "%"}, {"measurement": "22 Day survival", "setting": "[1]; 20 mg/kg i.p.", "result": "0/3"}, {"measurement": "toxicity assessment", "setting": "[1]; doses of 2.5 and 5 mg/kg i.p.", "result": "well tolerated"}, {"measurement": "toxicity assessment", "setting": "[1]; doses of 10 and 20 mg/kg i.p.", "result": "toxic"}]}
